{"source": "paper PMC3549253", "about": "“Effect of repetitive lysine–tryptophan motifs on the bactericidal activity of antimicrobial peptides” (Amino Acids, 2012)", "key": {"E. coli CCARM 1229": {"tested_on": "E. coli CCARM 1229", "format": "cell-based, Escherichia coli", "settings": "drug-resistant strain, 2 × 10^5 CFU/ml, 24 h at 37° C, average of 3–4 independent experiments", "from_the_text": "(§1) Escherichia coli (KCTC 1682), Salmonella typhimurium (KCTC 1926), Pseudomonas aeruginosa (KCTC 1637), Staphylococcus aureus (KCTC 1621), Bacillus subtilis (KCTC 1918), and Listeria monocytogenes (KCTC 3710) were obtained from the Korean Collection for Type Cultures (KCTC). Drug-resistant E. coli strains (CCARM 1229 and CCARM 1238), S. typhimurium strains (CCARM 8007, CCARM 8009, and CCARM 8013), and S. aureus strains (CCARM 3089, CCARM 3090, CCARM 3108, CCARM 3114, and CCARM 3126) were from the Culture Collection of Antibiotic-Resistant Microbes (CCARM) at Seoul Women’s University, Korea.\nThe antibacterial activities of the peptides against Gram-negative, Gram-positive and antibiotic-resistant bacterial strains were evaluated using the microbroth dilution method (Park et al. [2003]). Aliquots of culture medium containing bacterial suspensions in mid-logarithmic phase at a concentration of 2 × 10^5 colony forming units (CFU)/ml were added to each well of a multiwell plate containing peptide solution serially diluted 2× in 10 mM sodium phosphate buffer (pH 7.2) or phosphate-buffered saline (PBS, 1.5 mM KH2PO4, 2.7 mM KCl, 8.1 mM Na2HPO4, 150 mM NaCl, pH 7.2). Growth inhibition was evaluated by measuring the absorbance at 620 nm using a Versa-Max microplate Elisa Reader (Molecular Devices Co., Sunnyvale, CA, USA) after 24 h of incubation at 37° C. […]"}, "human red blood cells": {"tested_on": "human red blood cells", "assay": "Human red blood cell (hRBC) hemolysis", "format": "cell-based", "protocol": "Hemolytic activities of the peptides were assessed using heparinized hRBCs collected from healthy donors. Fresh hRBCs were washed three times by centrifugation at 800×g for 10 min in PBS (pH 7.2) and then resuspended in PBS. The peptides were then dissolved in PBS and added to 100 μl of stock hRBCs suspended in PBS (final RBC concentration, 4 % v/v), after which the samples were incubated with gentle agitation for 60 min at 37° C before centrifugation for 10 min at 800×g. Absorbance of the supernatants was recorded at 414 nm. In addition, control samples for zero hemolysis and 100 % hemolysis were incubated with PBS (A blank) or 0.1 % Triton X-100 (A triton), respectively. Melittin was used as a reference hemolytic peptide. Percent hemolysis was calculated according to the following equation: Each measurement was conducted in triplicate (Kim et al. [2011])."}, "[1]": {"tested_on": "Staphylococcus aureus (KCTC 1621)", "format": "cell-based", "settings": "2 × 10^5 CFU/ml, 24 h at 37° C, average of 3–4 independent experiments", "from_the_text": "as §1\n(§2) The antibacterial activities of the peptides against Gram-negative, Gram-positive and antibiotic-resistant bacterial strains were evaluated using the microbroth dilution method (Park et al. [2003]). Aliquots of culture medium containing bacterial suspensions in mid-logarithmic phase at a concentration of 2 × 10^5 colony forming units (CFU)/ml were added to each well of a multiwell plate containing peptide solution serially diluted 2× in 10 mM sodium phosphate buffer (pH 7.2) or phosphate-buffered saline (PBS, 1.5 mM KH2PO4, 2.7 mM KCl, 8.1 mM Na2HPO4, 150 mM NaCl, pH 7.2). Growth inhibition was evaluated by measuring the absorbance at 620 nm using a Versa-Max microplate Elisa Reader (Molecular Devices Co., Sunnyvale, CA, USA) after 24 h of incubation at 37° C. […] All MIC measurements were the average of 3–4 independent experiments."}, "[2]": {"tested_on": "Escherichia coli (KCTC 1682)", "format": "cell-based", "settings": "2 × 10^5 CFU/ml, 24 h at 37° C, absorbance 620 nm, average of 3–4 independent experiments", "from_the_text": "as §1, §2"}, "[3]": {"tested_on": "Salmonella typhimurium (KCTC 1926)", "format": "cell-based", "settings": "2 × 10^5 CFU/ml, 24 h at 37° C, average of 3–4 independent experiments", "from_the_text": "as §1, §2"}, "[4]": {"tested_on": "Pseudomonas aeruginosa (KCTC 1637)", "format": "cell-based", "settings": "2 × 10^5 CFU/ml, 24 h at 37° C, average of 3–4 independent experiments", "from_the_text": "as §1, §2"}, "[5]": {"tested_on": "Listeria monocytogenes (KCTC 3710)", "format": "cell-based", "settings": "2 × 10^5 CFU/ml, 24 h at 37° C, average of 3–4 independent experiments", "from_the_text": "as §1, §2"}, "[6]": {"settings": "10 mM sodium phosphate buffer, pH 7.2"}, "[7]": {"settings": "PBS, pH 7.2 (number in parentheses)"}}, "note": "Like-named read-outs stand apart in the source and are kept apart here."}
{"smiles": "CC[C@H](C)[C@H](NC(=O)CN)C(=O)NCC(=O)N[C@@H](C)C(=O)N[C@H](C(=O)N[C@@H](CC(C)C)C(=O)N[C@@H](CCCCN)C(=O)N[C@H](C(=O)N[C@@H](CC(C)C)C(=O)N[C@H](C(=O)N[C@H](C(=O)NCC(=O)N[C@@H](CC(C)C)C(=O)N1CCC[C@H]1C(=O)N[C@@H](C)C(=O)N[C@@H](CC(C)C)C(=O)N[C@H](C(=O)N[C@@H](CO)C(=O)N[C@@H](Cc1c[nH]c2ccccc12)C(=O)N[C@H](C(=O)N[C@@H](CCCCN)C(=O)N[C@@H](CCCNC(=N)N)C(=O)N[C@@H](CCCCN)C(=O)N[C@@H](CCCNC(=N)N)C(=O)N[C@@H](CCC(N)=O)C(=O)N[C@@H](CCC(N)=O)C(N)=O)[C@@H](C)CC)[C@@H](C)CC)[C@@H](C)O)[C@@H](C)O)C(C)C)C(C)C", "note": "[Melittin, reference compound]", "values": [{"measurement": "MIC", "setting": "E. coli CCARM 1229; [6]", "value": "3.12 (3.12) μM"}, {"measurement": "MIC", "setting": "E. coli CCARM 1229; [7]", "value": "3.12 (3.12) μM"}, {"measurement": "Hemolysis", "setting": "human red blood cells; 200 μM peptide in PBS pH 7.2, 4 % v/v hRBCs, 60 min at 37° C, absorbance 414 nm, 100 % = 0.1 % Triton X-100, triplicate", "value": 100, "unit": "%"}, {"measurement": "MHC (minimal hemolytic concentration)", "setting": "human red blood cells; minimal peptide concentration that produces 10 % hemolysis, hRBCs in PBS", "value": 0.5, "unit": "µM"}, {"measurement": "MIC", "setting": "[1]; [6]", "value": "1.56 (1.56) μM"}, {"measurement": "MIC", "setting": "[1]; [7]", "value": "1.56 (1.56) μM"}, {"measurement": "MIC", "setting": "[2]; [6]", "value": "1.56 (1.56) μM"}, {"measurement": "MIC", "setting": "[2]; [7]", "value": "1.56 (1.56) μM"}, {"measurement": "MIC", "setting": "[3]; [6]", "value": "0.39 (0.39) μM"}, {"measurement": "MIC", "setting": "[3]; [7]", "value": "0.39 (0.39) μM"}, {"measurement": "MIC", "setting": "[4]; [6]", "value": "3.12 (3.12) μM"}, {"measurement": "MIC", "setting": "[4]; [7]", "value": "3.12 (3.12) μM"}, {"measurement": "MIC", "setting": "[5]; [6]", "value": "1.56 (1.56) μM"}, {"measurement": "MIC", "setting": "[5]; [7]", "value": "1.56 (1.56) μM"}]}
